Target: human factor Xa (Homo sapiens, UniProt P00742)
Assay: APTT clotting assay: anticoagulant activity of factor Xa aptamer

Amino acid sequences for entries named in this document (tags omitted). Residues count along the entry.
UniProt P00742, 41-179 limits assumed: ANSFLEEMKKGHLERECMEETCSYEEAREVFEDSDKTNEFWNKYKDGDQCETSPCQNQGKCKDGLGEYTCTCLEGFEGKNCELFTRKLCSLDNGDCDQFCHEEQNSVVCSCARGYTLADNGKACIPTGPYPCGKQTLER
UniProt P00742, 235-488 limits assumed: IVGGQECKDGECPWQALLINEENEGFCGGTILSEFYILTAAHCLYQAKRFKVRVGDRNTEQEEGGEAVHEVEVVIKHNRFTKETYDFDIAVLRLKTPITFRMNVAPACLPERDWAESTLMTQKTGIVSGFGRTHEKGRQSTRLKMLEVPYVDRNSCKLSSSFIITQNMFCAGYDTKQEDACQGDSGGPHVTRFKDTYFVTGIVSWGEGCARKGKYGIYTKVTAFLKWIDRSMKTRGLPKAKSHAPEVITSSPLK

## 11f7t: 37 nt long, 2′fluoropyrimidine modified RNA aptamer to human factor Xa (SEQ ID NO: 2) (GAGAGCCCCAGCGAGAUAAUACUUGGCCCCGCUCUUU; 2'-fluoro at CU, RNA at AG, backbone not given here)
APTT, FIG. 5C
  anticoagulant activity (in words): potent anticoagulant agent
Aptamer 250 nM, baseline approximately 28 seconds
  clotting time in aPTT assay: approximately 97 seconds
